Assay [1] deals with T1, D-amino-acid oxidase (Homo sapiens, UniProt P14920). As to the kind of experiment: Inhibition Assay. The conditions noted are these: pH 7.5; 25 °C. As for the experimental part:
At the time of measurement, the cells were centrifuged at 1000 rpm for one min and the Cellbanker solution was removed. […] A 4% DMSO buffer solution (50 mM sodium phosphate [pH 7.5], 0.02% CHAPS) of the test compound (4 μL) was added to a 384-well black, low volume plate, the cell suspension (4 μL) was added, and the mixture was incubated at room temperature for 15 min.

Sequences of proteins named here, by UniProt entry; tags and fusion partners are left off. A change or cut given only in a name is not applied to a line headed by its entry.
UniProt P14920: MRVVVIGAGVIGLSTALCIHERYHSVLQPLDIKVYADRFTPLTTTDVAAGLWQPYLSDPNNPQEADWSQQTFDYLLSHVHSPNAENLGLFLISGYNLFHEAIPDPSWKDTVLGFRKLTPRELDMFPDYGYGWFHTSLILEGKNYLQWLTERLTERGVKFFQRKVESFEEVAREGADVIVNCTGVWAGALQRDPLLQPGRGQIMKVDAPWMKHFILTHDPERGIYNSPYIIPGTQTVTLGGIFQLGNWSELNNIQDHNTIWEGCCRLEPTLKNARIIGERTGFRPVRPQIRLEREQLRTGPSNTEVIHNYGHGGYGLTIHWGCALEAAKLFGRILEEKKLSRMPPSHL

Assay [2] has as its target T1, D-amino-acid oxidase. Kind of assay: Inhibition Assay. Particulars: pH 7.5; 25 °C. As for the experimental part:
The DAAO inhibitory activity was measured by assaying the amount of hydrogen peroxide (H2O2) produced by reacting DAAO protein with flavin adenine dinucleotide (FAD) and D-alanine. The amount of H2O2 was determined by measuring the fluorescence generated on conversion of Amplex red (manufactured by Invitrogen Co.) into resorufin by the reaction of H2O2 with horseradish peroxidase (HRP).
The source holds these as a separate data set.

On to `O=c1[nH]nc(CCc2cccc(CO)c2)cc1O` [US9212147, 16], for which the values for the concentration for half-maximal inhibition (IC50) against D-amino-acid oxidase [1] and against D-amino-acid oxidase [2] were 8.8 nM and 2.1 nM, respectively.

As to `COc1cc(CO)cc(CCc2cc(O)c(=O)[nH]n2)c1` [US9212147, 23], the IC50 turned out to be 25 nM at D-amino-acid oxidase [1] and 13 nM at D-amino-acid oxidase [2].

Regarding `O=c1[nH]nc(CCc2ccc(CO)cc2)cc1O` [US9212147, 14], the IC50 against D-amino-acid oxidase [1] worked out at 10 nM; at D-amino-acid oxidase [2], 2.9 nM.

The IC50 is the point on the concentration scale where inhibition reaches its midpoint.
